Where a name gives a salt, the structure may show the parent alone.

In the first assay the target is T1, human NTCP (Homo sapiens, UniProt Q14973).
T1 sequence (Q14973 1-349): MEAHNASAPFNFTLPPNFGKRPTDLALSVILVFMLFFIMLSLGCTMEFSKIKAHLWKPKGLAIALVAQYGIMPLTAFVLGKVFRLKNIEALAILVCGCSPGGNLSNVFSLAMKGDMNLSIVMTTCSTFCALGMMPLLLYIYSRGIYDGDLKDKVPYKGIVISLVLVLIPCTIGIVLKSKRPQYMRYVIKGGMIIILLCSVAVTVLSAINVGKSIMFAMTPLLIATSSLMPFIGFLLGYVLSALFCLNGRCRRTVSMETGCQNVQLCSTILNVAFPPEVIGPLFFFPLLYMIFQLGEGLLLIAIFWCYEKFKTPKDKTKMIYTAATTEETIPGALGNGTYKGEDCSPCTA
The assay is described as follows: Screening fluorescent competitive Myrcludex B-FITC binding assay (96-well, 10 µM drug). As to conditions: 0.5 h, read-out: %NTCP binding, screening Myrcludex B-FITC binding, 10 µM drug, Prestwick library.
For the molecule `NC(=NCc1ccccc1)NC(=O)c1nc(Cl)c(N)nc1N` [Benzamil hydrochloride], the remaining activity at 10 µM came to 84.6%.
With `CC(NC(C)(C)C)C(=O)c1cccc(Cl)c1` (stereo not shown) [Bupropion hydrochloride], the remaining activity at 10 µM stood at 60.3%.

Staying with this assay, now noted: screening Myrcludex B-FITC binding, 10 µM drug.
The molecule `CCC(=O)OCC(=O)[C@@]1(OC(=O)CC)[C@@H](C)C[C@H]2[C@@H]3CCC4=CC(=O)C=C[C@]4(C)[C@@]3(Cl)[C@@H](O)C[C@@]21C` [Beclomethasone dipropionate] yielded a B-score binding assay of -0.518.
On to `CCC1(C)CC(=O)NC(=O)C1` [Bemegride], for which the B-score binding assay is -2.269.
For the molecule `C/C(=C(\CCOP(=O)(O)O)SC(=O)c1ccccc1)N(C=O)Cc1cnc(C)nc1N` [Benfotiamine], the B-score binding assay worked out at 0.196.
In turn, `NC(CO)C(=O)NNCc1ccc(O)c(O)c1O` (stereo not shown) [Benserazide hydrochloride] yielded a B-score binding assay of 0.009.
On the same count and under the same terms, in the case of `NC(=NCc1ccccc1)NC(=O)c1nc(Cl)c(N)nc1N` [Benzamil hydrochloride] it was -0.194; in that of `CCc1oc2ccccc2c1C(=O)c1cc(Br)c(O)c(Br)c1` [Benzbromarone], 0.673; in that of `CCOC(=O)c1ccc(N)cc1` [Benzocaine], -1.908.
The same measure, in the same setting: in the case of `CN1[C@@H]2CC[C@H]1C[C@@H](OC(c1ccccc1)c1ccccc1)C2` [Benztropine mesylate] it was -0.297; in that of `CN(C)CCCOc1nn(Cc2ccccc2)c2ccccc12` [Benzydamine hydrochloride], -0.285; in that of `C/C=C(\C)C(=O)O[C@H]1[C@H](OC(C)=O)[C@@]2(CO)C(CC1(C)C)C1=CC[C@@H]3[C@@]4(C)CC[C@H](O[C@@H]5O[C@H](C(=O)O)[C@@H](O[C@@H]6O[C@H](CO)[C@@H](O)[C@H](O)[C@H]6O)[C@H](O)[C@H]5O[C@@H]5O[C@H](CO)[C@@H](O)[C@H](O)[C@H]5O)[C@H](CO)C4CC[C@@]3(C)[C@@]1(C)C[C@H]2O` (stereo partly drawn) [Beta-Escin], -8.467.
`CNCCc1ccccn1.CS(=O)(=O)O.CS(=O)(=O)O` [Betahistine mesylate] returned a B-score binding assay of 0.863.
Turning to `CC(O)(CS(=O)(=O)c1ccc(F)cc1)C(=O)Nc1ccc(C#N)c(C(F)(F)F)c1` (stereo not shown) [Bicalutamide], the B-score binding assay is -1.492.
Turning to `c1ccc(-c2ccc(C(c3ccccc3)n3ccnc3)cc2)cc1` (stereo not shown) [Bifonazole], the B-score binding assay was -0.97.
`O=C(O)CCCC[C@@H]1SC[C@@H]2NC(=O)N[C@@H]21` [Biotin]: the B-score binding assay was -3.098.
In turn, `OC(CCN1CCCCC1)(c1ccccc1)C1CC2C=CC1C2` (stereo not shown) [Biperiden hydrochloride] had a B-score binding assay of -0.046.
Still for that read-out and setting: under `CC(=O)Oc1ccc(C(c2ccc(OC(C)=O)cc2)c2ccccn2)cc1` [Bisacodyl] stands -2.592; under `CC(C)NCC(O)COc1ccc(COCCOC(C)C)cc1` (stereo not shown) [Bisoprolol fumarate], -2.08; under `CN(Cc1cc(Br)cc(Br)c1N)C1CCCCC1` [Bromhexine hydrochloride], -2.362.
In turn, `CN(C)CCC(c1ccc(Br)cc1)c1ccccn1` (stereo not shown) [Brompheniramine maleate] returned a B-score binding assay of 0.237.
In turn, `CCCC(=O)Nc1ncnc2c1ncn2[C@@H]1O[C@@H]2COP(=O)([O-])O[C@H]2[C@H]1OC(=O)CCC.[Na+]` [Bucladesine sodium salt] returned a B-score binding assay of -0.083.
The molecule `CCCC1O[C@@H]2C[C@H]3[C@@H]4CCC5=CC(=O)C=C[C@]5(C)[C@H]4[C@@H](O)C[C@]3(C)[C@]2(C(=O)CO)O1` (stereo partly shown) [Budesonide] came in with a B-score binding assay of 1.783.
In turn, `CCCCOc1ccc(CC(=O)NO)cc1` [Bufexamac] yielded a B-score binding assay of -1.159.
The molecule `CCCCN1CCCCC1C(=O)Nc1c(C)cccc1C` (stereo not shown) [Bupivacaine hydrochloride] had a B-score binding assay of -1.06.
Still for that read-out and setting: under `CC(NC(C)(C)C)C(=O)c1cccc(Cl)c1` (stereo not shown) [Bupropion hydrochloride] stands -0.656.
`O=C1CC2(CCCC2)CC(=O)N1CCCCN1CCN(c2ncccn2)CC1` [Buspirone hydrochloride] had a B-score binding assay of -1.506.
Regarding `CS(=O)(=O)OCCCCOS(C)(=O)=O` [Busulfan], the B-score binding assay is -0.772.
In turn, `Clc1ccc(CCC(Cn2ccnc2)Sc2c(Cl)cccc2Cl)cc1` (stereo not shown) [Butoconazole nitrate] registered a B-score binding assay of 0.177.
For `C=C1/C(=C\C=C2/CCC[C@]3(C)[C@@H]([C@H](C)/C=C/[C@@H](O)C4CC4)CC[C@@H]23)C[C@@H](O)C[C@@H]1O` [Calcipotriene], the B-score binding assay is given as 0.49.
As to `C[N+](C)(C)CCOC(N)=O` [Carbachol], the B-score binding assay is on record as -0.839.
With `CC1(C)[C@@H](OC(=O)CCC(=O)O)CC[C@]2(C)[C@H]3C(=O)C=C4[C@@H]5C[C@@](C)(C(=O)O)CC[C@]5(C)CC[C@@]4(C)[C@]3(C)CC[C@@H]12` [Carbenoxolone disodium salt], the B-score binding assay is given as -0.442.
As to `C[C@@](Cc1ccc(O)c(O)c1)(NN)C(=O)O` [Carbidopa], the B-score binding assay is listed as -0.546.
Molecule `CCOC(=O)n1ccn(C)c1=S` [Carbimazole] yielded a B-score binding assay of -2.481.
In turn, `CC(C)(C)NCC(O)COc1cccc2c1CCC(=O)N2` (stereo not shown) [Carteolol hydrochloride] registered a B-score binding assay of 0.356.
On the same count and under the same terms, in the case of `C=CC1=C(C(=O)O)N2C(=O)[C@@H](NC(=O)/C(=N\O)c3csc(N)n3)[C@H]2SC1` [Cefdinir] it was 0.499.
Consider `C=CC1=C(C(=O)O)N2C(=O)[C@@H](NC(=O)/C(=N\OCC(=O)O)c3csc(N)n3)[C@H]2SC1` [Cefixime], for which the B-score binding assay is on record as -0.722.
`CO[C@@]1(NC(=O)CSCC#N)C(=O)N2C(C(=O)O)=C(CSc3nnnn3C)CS[C@@H]21` [Cefmetazole sodium salt] returned a B-score binding assay of -0.699.
`CN(C)CCn1nnnc1SCC1=C(C(=O)O)N2C(=O)[C@@H](NC(=O)Cc3csc(N)n3)[C@H]2SC1` [Cefotiam hydrochloride]: the B-score binding assay is recorded as -3.496.
Take `Cc1cc(O)c(C(=O)N[C@@H](C(=O)N[C@@H]2C(=O)N3C(C(=O)O)=C(CSc4nnnn4C)CS[C@H]23)c2ccc(O)cc2)cn1` [Cefpiramide]: the B-score binding assay was -0.568.
For `COCC1=C(C(=O)OC(C)OC(=O)OC(C)C)N2C(=O)[C@@H](NC(=O)/C(=N\OC)c3csc(N)n3)[C@H]2SC1` (stereo partly shown) [Cefpodoxime proxetil], the B-score binding assay amounted to 0.322.
Still for that read-out and setting: under `CC(C)(O/N=C(\C(=O)N[C@@H]1C(=O)N2C(C(=O)[O-])=C(C[n+]3ccccc3)CS[C@H]12)c1csc(N)n1)C(=O)O` [Ceftazidime pentahydrate] stands 3.035; under `CO/N=C(\C(=O)N[C@@H]1C(=O)N2C(C(=O)OC(C)OC(C)=O)=C(COC(N)=O)CS[C@H]12)c1ccco1` (stereo partly shown) [Cefuroxime axetil], 0.39.
Take `C[C@H](CCC(=O)O)[C@H]1CC[C@H]2[C@@H]3[C@H](O)C[C@@H]4C[C@H](O)CC[C@]4(C)[C@H]3CC[C@]12C` [Chenodiol]: the B-score binding assay is recorded as -8.499.
In turn, `COc1cc(-c2ccc(N=Nc3ccc4c(S(=O)(=O)[O-])cc(S(=O)(=O)[O-])c(N)c4c3O)c(OC)c2)ccc1N=Nc1ccc2c(S(=O)(=O)[O-])cc(S(=O)(=O)[O-])c(N)c2c1O.[Na+].[Na+].[Na+].[Na+]` [Chicago Sky Blue 6B] displayed a B-score binding assay of -13.6.
`O=C(O)CCCc1ccc(N(CCCl)CCCl)cc1` [Chlorambucil]: the B-score binding assay is -1.245.
Same read-out and setting: in the case of `O=C(N[C@H](CO)[C@H](O)c1ccc([N+](=O)[O-])cc1)C(Cl)Cl` [Chloramphenicol] it was -0.789; in that of `[H]/N=C(\N/C(=N/[H])NCCCCCCNC(=N)NC(=N)Nc1ccc(Cl)cc1)Nc1ccc(Cl)cc1` [Chlorhexidine], -2.972.
On to `CC(=O)O[C@]1(C(C)=O)CC[C@H]2[C@@H]3C=C(Cl)C4=CC(=O)CC[C@]4(C)[C@H]3CC[C@@]21C` [Chlormadinone acetate], for which the B-score binding assay is -2.961.
For `Oc1c(Cl)cc(Cl)c2cccnc12` [Chloroxine], the B-score binding assay is reported as 0.011.
In turn, `CN(C)CCCN1c2ccccc2Sc2ccc(Cl)cc21` [Chlorpromazine hydrochloride] showed a B-score binding assay of -4.067.
The molecule `NS(=O)(=O)c1cc(C2(O)NC(=O)c3ccccc32)ccc1Cl` (stereo not shown) [Chlorthalidone] showed a B-score binding assay of 1.936.
For the molecule `COCCOC(=O)C1=C(C)NC(C)=C(C(=O)OC/C=C/c2ccccc2)C1c1cccc([N+](=O)[O-])c1` (stereo not shown) [Cilnidipine], the B-score binding assay is on record as -0.361.
As to `CN/C(=N/CCSCc1nc[nH]c1C)NC#N` [Cimetidine], the B-score binding assay is listed as -1.404.
`CC(C)(Oc1ccc(C2CC2(Cl)Cl)cc1)C(=O)O` (stereo not shown) [Ciprofibrate] yielded a B-score binding assay of -0.332.

The assay is the same for the next values; noted with them: screening Myrcludex B-FITC binding, 10 µM drug, Prestwick library.
Consider `CCCC(=O)Nc1ncnc2c1ncn2[C@@H]1O[C@@H]2COP(=O)([O-])O[C@H]2[C@H]1OC(=O)CCC.[Na+]` [Bucladesine sodium salt], for which the “%NTCP binding” value is listed as 108.681%.
Turning to `NC(=O)OCC(O)COc1ccc(Cl)cc1` (stereo not shown) [Chlorphensin carbamate], the “%NTCP binding” value worked out at 77.0968%.

The assay is the same for the next values; noted with them: screening Myrcludex B-FITC binding, 10 µM drug; B-score.
Turning to `CO/N=C(\C(=O)N[C@@H]1C(=O)N2C(C(=O)O)=C(C[N+]3(C)CCCC3)CS[C@H]12)c1csc(N)n1` [Cefepime hydrochloride], the B-score binding assay was found to be 1.672.
With `NCc1ccccc1CC(=O)N[C@@H]1C(=O)N2C(C(=O)O)=C(CSc3nnnn3CC(=O)O)CS[C@H]12` [Ceforanide], the B-score binding assay amounted to 2.25.
Same read-out and setting: in the case of `CN1CCN(C(c2ccccc2)c2ccc(Cl)cc2)CC1` (stereo not shown) [Chlorcyclizine hydrochloride] it was 2.035; in that of `NC(=O)OCC(O)COc1ccc(Cl)cc1` (stereo not shown) [Chlorphensin carbamate], 1.766.

The record behind these values is article PMC5681660, “Reduced hepatitis B and D viral entry using clinically applied drugs as novel inhibitors of the bile acid transporter NTCP” (Scientific Reports, 2017).
